Test results: patent publication US20190209472A1, “FORMULATIONS FOR DERMAL DELIVERY OF POLYMER CONJUGATES OF INDOLOCARBAZOLE COMPOUNDS WITH REDUCED EXPOSURE” (Sienna Biopharmaceuticals, Inc., priority 2017, published 2019)

Experiments:
[1] = Validation of HPLC methods (SNA-120 assay and related substances, benzyl alcohol); conditions: SNA-120 standard solutions, protected from light at ambient conditions
Description: An HPLC method was developed for the detection of assay and related substances of SNA-120 drug product and placebo. The following method validation parameters were challenged: specificity; linearity; accuracy; precision (system and repeatability); range; stability of test solutions; limit of detection and quantitation; system suitability.
An HPLC method was developed for the detection of Benzyl Alcohol in SNA-120 drug product and placebo. The following method validation parameters were challenged: specificity; linearity; accuracy; precision (system and repeatability); range; stability of test solutions; system suitability.

[2] = tested on: subjects with pruritus associated with psoriasis vulgaris; assay: Phase 2b study: safety and tolerability; design: species or system human; conditions: in vivo
Description: The study subjects (mild-to-moderate psoriasis patients with at least moderate pruritus (itch)) consisted of 208 adult subjects that were ≥18 years of age, randomized 1:1:1 to SNA-120 0.05%, SNA-120 0.5% and vehicle (see Table 1). Subjects self-administered the assigned study drug (SNA-120 ointment or vehicle; the vehicle formulation was the same as the SNA-120 formulation without the active) to the indicated areas twice-daily over 12 weeks. The ointment contains SNA-120 (pegcantratinib [active ingredient]), butylated hydroxytoluene, benzyl alcohol, propylene glycol, white soft paraffin (white petrolatum), white wax, stearyl alcohol, and cholesterol (see Table 1). Assessments were performed to determine the treatment effect on pruritus, as well as the underlying visible plaque psoriasis, and safety and local tolerability of SNA-120. Pruritus was assessed by the subject-administered I-NRS and recorded on their daily diaries. Plaque psoriasis was assessed by the investigator by Investigator Global Assessment (IGA) and Psoriasis Area Severity Index (PAST). At baseline, subjects were required to have a weekly mean I-NRS score of at least 5 on the 11 point I-NRS scale, and mild to moderate plaque psoriasis (IGA 2 or 3).

[3] = tested on: patients with stable psoriasis vulgaris; assay: Phase I study: safety and tolerability (TEAEs, laboratory, vital signs, ECG); conditions: in vivo

In the case of “(9S, 10R, 12R)-10-(3′-mPEG2000-1′,3′-oxazolidine-2′,4′-dione)-2,3,9,10,11,12-hexahydro-9-methyl-1-oxo-9,12-epoxy-1H-diindolo[1,2,3-fg:3′,2′,1′-k,l]pyrrolo[3,4-i][1,6] benzodiazocine] [CT327]”, the “Stability of test solutions: standards stable for up to” value [1] is reported as “Standards are stable for up to 3 days when protected from light at”, the “Serious treatment-related adverse events” value [2] is reported as “no serious treatment-related adverse events” and the Tolerability [2] is reported as “well-tolerated”. The “AEs at the treatment application sites” value [3] was “No AEs”, the “Clinical laboratory test results, vital signs, ECGs or physical examinations” value [3] was “no clinically significant findings” and the “Deaths, SAEs or withdrawals due to TEAEs” value [3] was “No deaths, SAEs or withdrawals due to TEAEs”. The “Severe TEAEs” value [3] was “No severe TEAEs” and the “Tolerability of study treatment” value [3] was “well tolerated”.
